# Results: patent publication US20260382772A1, “KETO-AMIDE-BASED FIBROBLAST ACTIVATION PROTEIN-TARGETED LIGAND LINKED TO AN IMAGING OR THERAPEUTIC AGENT, COMPOSITIONS, AND METHODS OF USE” (published 2026)
# Legend:
# [1] = system: HEK-FAP tumor bearing mice; assay: Biodistribution of ^177Lu-FAP8-PEG3-IP-DOTA in HEK-FAP tumor bearing mice; conditions: 5.0 nmol/mouse
# Excerpt: Balb/c mice were inoculated on their shoulders with 1×10^5 cells of 4T1 cells, whereas nu/nu mice were inoculated on their shoulders with 5×10^6 cells of HT29 (a human colorectal adenocarcinoma cell line), KB (tumor cell line HeLa), MDA-MB-231 (a human breast cancer cell line), or HEK-FAP cells.
# For the first study, two different tumor-bearing mice (4T1 and HEK-hFAP) were intravenously injected with [^111In] In-FAP8-PEG3-IP-DOTA (In-Conjugate 24′) (0.74 MBq/mouse, 1-10 nmol/mouse) or [^177Lu] Lu-FAP8-PEG3-IP-DOTA (Lu-Conjugate 24′) (7.4 MBq/mouse, 0.3 nmol-5 nmol/mouse).
# At indicated time points (1 hour, 4 hours, 24 hours, 72 hours, 120 hours, and 168 hours post-injection), mice were assessed and/or euthanized by CO2 asphyxiation and organs of interest were harvested, excess blood was rinsed, dried, weighed, and then analyzed by gamma counter, and the results were decay corrected and presented as the percentage of the injected dose per gram of tissue (% ID/g)±standard deviation (SD).
# [2] = system: HEK-FAP tumor bearing mice; assay: Dosimetry analysis using OLINDA software, HEK-FAP tumor; conditions: ^177Lu; 5 nmol/mouse
# Method: From the ex vivo biodistribution data obtained from the ^111In/^177Lu-FAP8-PEG3-IP-DOTA in 4T1 and HEK-FAP tumor bearing mice, the total absorbed radiation dose coefficients (mGy/MBq were calculated using OLINDA 2.2.3 software (Tables 9-12).
# FIGS. 36A and 36B show comparison data related to the total absorbed dose coefficient in selected organs (blood, heart, lungs, liver, spleen, kidney's bone marrow, and tumor). Dose estimates for healthy organs such as blood, heart, lungs, liver, spleen, kidneys, and bone marrow were calculated assuming a 25 g mouse phantom, whereas for tumor dose estimates were calculated with the sphere model. Time-activity curves were fitted to the biodistribution data of each organ individually with exponential functions.
structure (smiles),measurement,setting,value
COc1ccc(CNC(=O)C(=O)[C@@H]2CC(F)(F)CN2C(=O)CNC(=O)c2ccnc3ccc(OCC(=O)NCCOCCOCCOCCNC(=O)[C@H](CCCCNC(=O)CCCc4ccc(I)cc4)NC(=O)CN4CCN(CC(=O)O)CCN(CC(=O)O)CCN(CC(=O)O)CC4)cc23)cc1OC.[Lu+3],Blood uptake,[1]; 1 h,21.69 ± 4.75 % ID/g
same,Bone marrow uptake,[1]; 1 h,0.63 ± 0.39 % ID/g
same,Heart uptake,[1]; 1 h,1.16 ± 0.32 % ID/g
same,Intestine uptake,[1]; 1 h,1.14 ± 0.48 % ID/g
same,Kidneys uptake,[1]; 1 h,5.61 ± 2.08 % ID/g
same,Liver uptake,[1]; 1 h,8.39 ± 1.48 % ID/g
same,Lungs uptake,[1]; 1 h,1.79 ± 0.65 % ID/g
same,Spleen uptake,[1]; 1 h,4.21 ± 1.23 % ID/g
same,Stomach uptake,[1]; 1 h,0.75 ± 0.12 % ID/g
same,Tumor uptake,[1]; 1 h,7.79 ± 1.32 % ID/g
same,Tumor/Blood,[1]; 1 h,0.34 ± 0.04
same,Tumor/Bone marrow,[1]; 1 h,30.29 ± 35.11
same,Tumor/Kidneys,[1]; 1 h,1.5 ± 0.31
same,Blood uptake,[1]; 4 h,14.19 ± 2.67 % ID/g
same,Bone marrow uptake,[1]; 4 h,1.07 ± 0.80 % ID/g
same,Heart uptake,[1]; 4 h,0.5 ± 0.26 % ID/g
same,Intestine uptake,[1]; 4 h,0.23 ± 0.26 % ID/g
same,Kidneys uptake,[1]; 4 h,3.35 ± 1.93 % ID/g
same,Liver uptake,[1]; 4 h,4.37 ± 1.31 % ID/g
same,Lungs uptake,[1]; 4 h,1.54 ± 1.08 % ID/g
same,Spleen uptake,[1]; 4 h,1.44 ± 0.48 % ID/g
same,Stomach uptake,[1]; 4 h,0.15 ± 0.07 % ID/g
same,Tumor uptake,[1]; 4 h,10.13 ± 1.7 % ID/g
same,Tumor/Blood,[1]; 4 h,0.70 ± 0.04
same,Tumor/Bone marrow,[1]; 4 h,22.34 ± 20.76
same,Tumor/Kidneys,[1]; 4 h,3.37 ± 1.78
same,Blood uptake,[1]; 24 h,4.23 ± 1.81 % ID/g
same,Bone marrow uptake,[1]; 24 h,0.56 ± 0.39 % ID/g
same,Heart uptake,[1]; 24 h,0.54 ± 0.32 % ID/g
same,Intestine uptake,[1]; 24 h,0.62 ± 0.35 % ID/g
same,Kidneys uptake,[1]; 24 h,1.54 ± 1.08 % ID/g
same,Liver uptake,[1]; 24 h,3.98 ± 0.96 % ID/g
same,Lungs uptake,[1]; 24 h,0.58 ± 0.17 % ID/g
same,Spleen uptake,[1]; 24 h,1.59 ± 0.55 % ID/g
same,Stomach uptake,[1]; 24 h,0.37 ± 0.16 % ID/g
same,Tumor uptake,[1]; 24 h,13.99 ± 4.61 % ID/g
same,Tumor/Blood,[1]; 24 h,3.63 ± 1.16
same,Tumor/Bone marrow,[1]; 24 h,33.58 ± 19.14
same,Tumor/Kidneys,[1]; 24 h,12.76 ± 6.73
same,Blood uptake,[1]; 72 h,1.22 ± 0.51 % ID/g
same,Bone marrow uptake,[1]; 72 h,1.31 ± 0.88 % ID/g
same,Heart uptake,[1]; 72 h,0.54 ± 0.31 % ID/g
same,Intestine uptake,[1]; 72 h,0.29 ± 0.10 % ID/g
same,Kidneys uptake,[1]; 72 h,1.42 ± 0.51 % ID/g
same,Liver uptake,[1]; 72 h,3.73 ± 1.25 % ID/g
same,Lungs uptake,[1]; 72 h,0.63 ± 0.44 % ID/g
same,Spleen uptake,[1]; 72 h,4.46 ± 2.52 % ID/g
same,Stomach uptake,[1]; 72 h,0.26 ± 0.10 % ID/g
same,Tumor uptake,[1]; 72 h,16.89 ± 13.2 % ID/g
same,Tumor/Blood,[1]; 72 h,13.03 ± 4.45
same,Tumor/Bone marrow,[1]; 72 h,12.69 ± 6.67
same,Tumor/Kidneys,[1]; 72 h,13.23 ± 6.51
same,Blood uptake,[1]; 120 h,0.29 ± 0.07 % ID/g
same,Bone marrow uptake,[1]; 120 h,0.922 ± 1.07 % ID/g
same,Heart uptake,[1]; 120 h,0.30 ± 0.14 % ID/g
same,Intestine uptake,[1]; 120 h,0.195 ± 0.05 % ID/g
same,Kidneys uptake,[1]; 120 h,1.425 ± 1.01 % ID/g
same,Liver uptake,[1]; 120 h,2.37 ± 0.88 % ID/g
same,Lungs uptake,[1]; 120 h,0.335 ± 0.17 % ID/g
same,Spleen uptake,[1]; 120 h,2.50 ± 0.71 % ID/g
same,Stomach uptake,[1]; 120 h,0.127 ± 0.02 % ID/g
same,Tumor uptake,[1]; 120 h,11.48 ± 3.24 % ID/g
same,Tumor/Blood,[1]; 120 h,43.42 ± 20.68
same,Tumor/Bone marrow,[1]; 120 h,30.40 ± 25.91
same,Tumor/Kidneys,[1]; 120 h,11.78 ± 7.78
same,Blood uptake,[1]; 168 h,0.22 ± 0.05 % ID/g
same,Bone marrow uptake,[1]; 168 h,1.825 ± 0.6 % ID/g
same,Heart uptake,[1]; 168 h,0.42 ± 0.22 % ID/g
same,Intestine uptake,[1]; 168 h,0.15 ± 0.05 % ID/g
same,Kidneys uptake,[1]; 168 h,0.62 ± 0.26 % ID/g
same,Liver uptake,[1]; 168 h,2.3 ± 0.81 % ID/g
same,Lungs uptake,[1]; 168 h,0.67 ± 0.25 % ID/g
same,Spleen uptake,[1]; 168 h,1.82 ± 0.61 % ID/g
same,Stomach uptake,[1]; 168 h,0.15 ± 0.05 % ID/g
same,Tumor uptake,[1]; 168 h,12.05 ± 5.15 % ID/g
same,Tumor/Blood,[1]; 168 h,55.10 ± 18.20
same,Tumor/Bone marrow,[1]; 168 h,8.35 ± 2.00
same,Tumor/Kidneys,[1]; 168 h,22.40 ± 10.87
same,"Kinetics value, Blood",[2],4.26E−1 MBq-h/MBq
same,"Kinetics value, Bone Marrow",[2],6.27E−02 MBq-h/MBq
same,"Kinetics value, Heart",[2],1.05E−1 MBq-h/MBq
same,"Kinetics value, Intestines",[2],1.20E−1 MBq-h/MBq
same,"Kinetics value, Kidneys",[2],4.46E−01 MBq-h/MBq
same,"Kinetics value, Liver",[2],4.44E0 MBq-h/MBq
same,"Kinetics value, Lung",[2],1.56E−1 MBq-h/MBq
same,"Kinetics value, Spleen",[2],4.17E−1 MBq-h/MBq
same,"Kinetics value, Stomach",[2],5.81E−2 MBq-h/MBq
same,"Kinetics value, Tumor",[2],1.34E01 MBq-h/MBq
same,"Organ doses, Blood",[2],2.70E02 mGy/MBq
same,"Organ doses, Bone Marrow",[2],1.36E02 mGy/MBq
same,"Organ doses, Heart",[2],7.18E01 mGy/MBq
same,"Organ doses, Intestines",[2],7.32E01 mGy/MBq
same,"Organ doses, Kidneys",[2],2.34E02 mGy/MBq
same,"Organ doses, Liver",[2],4.41E02 mGy/MBq
same,"Organ doses, Lung",[2],5.73E01 mGy/MBq
same,"Organ doses, Spleen",[2],3.08E02 mGy/MBq
same,"Organ doses, Stomach",[2],4.13E01 mGy/MBq
same,"Organ doses, Tumor",[2],2.27E03 mGy/MBq
